Test results reported in BindingDB's records for doi:10.1021/jm00210a006 (1979).
“And” between values parts separate entries of the source, which are not always exact repeats. Identical values can stand only once.

The chains behind the UniProt entries cited, without tags or fusion partners. Residues count along the entry.
UniProt P00747, 97-580 limits assumed: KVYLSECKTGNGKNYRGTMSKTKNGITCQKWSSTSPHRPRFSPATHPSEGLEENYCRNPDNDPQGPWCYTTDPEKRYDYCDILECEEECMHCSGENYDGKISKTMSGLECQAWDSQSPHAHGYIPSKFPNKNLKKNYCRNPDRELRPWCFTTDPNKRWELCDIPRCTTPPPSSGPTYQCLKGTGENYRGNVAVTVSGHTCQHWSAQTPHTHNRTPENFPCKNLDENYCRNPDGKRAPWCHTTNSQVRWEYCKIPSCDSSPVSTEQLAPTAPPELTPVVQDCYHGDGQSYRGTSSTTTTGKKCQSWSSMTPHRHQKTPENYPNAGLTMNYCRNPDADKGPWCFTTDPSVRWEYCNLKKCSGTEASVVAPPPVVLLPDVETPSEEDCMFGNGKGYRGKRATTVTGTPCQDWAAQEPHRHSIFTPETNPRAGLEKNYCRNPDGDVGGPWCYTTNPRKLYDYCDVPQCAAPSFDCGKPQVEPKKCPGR
UniProt P00747, 581-810 limits assumed: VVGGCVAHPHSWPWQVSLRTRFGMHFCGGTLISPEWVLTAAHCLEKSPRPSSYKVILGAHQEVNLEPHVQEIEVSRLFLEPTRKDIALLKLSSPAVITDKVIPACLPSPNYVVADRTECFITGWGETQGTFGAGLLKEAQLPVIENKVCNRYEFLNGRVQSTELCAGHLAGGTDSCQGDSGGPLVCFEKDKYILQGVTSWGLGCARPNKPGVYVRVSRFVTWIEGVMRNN

Target: Plasminogen (Homo sapiens, UniProt P00747)
Assay: Competitive inhibition of esterase activity of human plasmin assessed as assessed as decrease in p-nitrophenol production using N-Z-L-Tyr-ONp as substrate by spectrophotometric analysis

N=C(N)c1ccccc1 [Benzamidine (Protonated)]
Ki: 2510 µM and 316 µM and 500 µM and 398 µM
